As a reminder, the IC50 is the concentration at which inhibition is half-maximal.

The values that follow come from US11845808B2, “Peptide inhibitors of interleukin-23 receptor and their use to treat inflammatory diseases” (Janssen Biotech, Inc., priority 2020, dated 2023).

Series [1] has as its target T1, IL-23R (Homo sapiens, UniProt Q5VWK5).
T1 construct: examines the levels of pSTAT3 in IL-23R-expressing DB cells when stimulated with IL-23; host or cells: DB cells
T1 sequence (Q5VWK5 24-629): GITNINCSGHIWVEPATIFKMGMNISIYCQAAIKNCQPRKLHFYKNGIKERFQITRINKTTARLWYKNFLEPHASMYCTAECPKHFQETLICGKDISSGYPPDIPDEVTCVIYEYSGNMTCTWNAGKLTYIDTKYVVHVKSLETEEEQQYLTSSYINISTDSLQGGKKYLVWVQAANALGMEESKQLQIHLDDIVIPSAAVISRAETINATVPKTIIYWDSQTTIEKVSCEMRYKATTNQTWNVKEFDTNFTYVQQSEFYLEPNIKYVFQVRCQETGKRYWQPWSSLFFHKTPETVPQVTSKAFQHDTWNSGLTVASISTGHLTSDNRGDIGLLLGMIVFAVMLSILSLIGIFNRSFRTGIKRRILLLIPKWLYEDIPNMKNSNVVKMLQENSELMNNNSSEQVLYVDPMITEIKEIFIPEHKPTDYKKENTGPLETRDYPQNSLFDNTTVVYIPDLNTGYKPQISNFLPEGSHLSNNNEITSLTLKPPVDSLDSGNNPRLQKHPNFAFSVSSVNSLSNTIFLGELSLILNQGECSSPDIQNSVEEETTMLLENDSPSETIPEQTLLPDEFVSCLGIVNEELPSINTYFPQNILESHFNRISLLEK
In words: DB cells IL23R pSTAT3 cell assay (pStat3 HTRF). The format is cell-based. The note with it: IL-23R-expressing DB cells, IL-23 0.5 nM, 30 minutes.

The nature of series [2]: Stability in cynomolgus monkey fecal homogenate. The note with it: 20% cynomolgus monkey fecal homogenate, 37° C., 20 μM. Format: in vitro ADME.
The target of series [3] is IL-23 stimulated phosphorylated STAT3 in PBMCs (Homo sapiens, UniProt Q5VWK5). Kind of series: PBMC pSTAT3 assay. Format: cell-based. As to conditions: PBMCs from healthy donors, IL-23 5 ng/mL, 30 minutes.
The nature of series [4]: Stability in human fecal homogenate. The format is in vitro ADME. The note with it: 20% human fecal homogenate, 37° C., 20 μM.
The nature of series [5]: Stability in simulated gastric fluid (SGF). Format: in vitro ADME. The note with it: pepsin, pH=2, 37° C., 20 μM peptide.
Series [6] has as its target IL-23 induced IFNγ in natural killer (NK) cells (Homo sapiens, UniProt Q5VWK5). In words: NK cell based assay (IL-23/IL-18 induced IFNγ). As to conditions: IL-23 at EC50 to EC75 and IL-18 10 ng/mL, IFNγ in supernatant after 20 to 24 hours. From the text: Example 3: NK Cell Based Assay

For “Ac-[Pen]-N-T-[W(7-Ph)]-[Lys(Ac)]-[Pen]-Phe[4-(2-aceylaminoethoxy)]-[2-Nal]-[THP]-[Lys(Ac)]-N-[3Pal]-[Sarc]-NH2 [Peptide 137]”, the IC50 in series [1] stood at 0.06 nM; in series [3], 12 pM; in series [6] it was 0.0177 nM. The “t½: Monkey Feces anaerobic” value in series [2] was above 24.0 h. Moreover, in series [4], the “t½: Human Feces anaerobic” value is above 24.0 h. The “SGF t½” value in series [5] is above 24.0 h.
Take “Ac-[Pen]-N-T-[W(7-Me)]-[Lys(Ac)]-[Pen]-Phe[4-(2-aminoethoxy)]-[2-Nal]-[THP]-E-N-[3Pal]-[Sarc]-NH2 [Peptide 104]”: the figures for the IC50 in series [1], in series [3] and in series [6] were 0.022 nM, 5.15 pM and 0.0192 nM, respectively. The “t½: Monkey Feces anaerobic” value in series [2] is above 24.0 h. Also, the “t½: Human Feces anaerobic” value in series [4] was above 24.0 h. Also, in series [5], the “SGF t½” value is above 24.0 h.
“Ac-[Pen]-N-T-[W(7-Ph)]-[Lys(Ac)]-[Pen]-Phe[4-(2-aminoethoxy)]-[2-Nal]-[THP]-E-N-[3Pal]-[Sarc]-NH2 [Peptide 106]”: the IC50 was found to be 0.044 nM in series [1], 8.7 pM in series [3] and 0.0325 nM in series [6]. Moreover, in series [2], the “t½: Monkey Feces anaerobic” value is above 24.0 h. Further, in series [4], the “t½: Human Feces anaerobic” value is above 24.0 h. Further, the “SGF t½” value in series [5] is above 24.0 h.
